# Source: PubChem BioAssay AID504357 (The Scripps Research Institute Molecular Screening Center, 2011)
# The chains behind the UniProt entries cited, without tags or fusion partners.
# UniProt P35372, whole entry, looked up: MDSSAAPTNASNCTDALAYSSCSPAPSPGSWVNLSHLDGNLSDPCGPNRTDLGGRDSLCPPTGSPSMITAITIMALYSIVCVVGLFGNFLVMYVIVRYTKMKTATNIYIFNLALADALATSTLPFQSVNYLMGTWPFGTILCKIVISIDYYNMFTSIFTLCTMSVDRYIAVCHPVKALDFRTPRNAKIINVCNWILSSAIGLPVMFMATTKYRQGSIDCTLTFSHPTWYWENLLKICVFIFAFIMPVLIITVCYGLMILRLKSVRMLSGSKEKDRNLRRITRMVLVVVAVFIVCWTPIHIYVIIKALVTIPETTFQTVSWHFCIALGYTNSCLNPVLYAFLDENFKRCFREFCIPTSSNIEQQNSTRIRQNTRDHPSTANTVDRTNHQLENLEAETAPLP
# UniProt P41143, whole entry, looked up: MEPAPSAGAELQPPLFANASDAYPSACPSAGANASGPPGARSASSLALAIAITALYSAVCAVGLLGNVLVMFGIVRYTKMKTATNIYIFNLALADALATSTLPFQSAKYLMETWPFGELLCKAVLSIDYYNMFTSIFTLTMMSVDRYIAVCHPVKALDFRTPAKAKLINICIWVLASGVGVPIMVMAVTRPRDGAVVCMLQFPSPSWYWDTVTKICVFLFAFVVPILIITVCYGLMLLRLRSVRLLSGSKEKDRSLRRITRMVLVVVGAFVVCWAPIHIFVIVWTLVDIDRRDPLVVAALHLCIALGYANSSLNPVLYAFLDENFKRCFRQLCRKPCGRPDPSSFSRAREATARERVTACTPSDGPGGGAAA
# The list shows a part of the results, in another mix than the full data. Calls of active or inactive are those of the source. Rule as the data show it: active = inhibition above about 22% (passing the limit was not always enough); inactive = the rest.
# Molecular target: Mu-type opioid receptor (Homo sapiens) + Delta-type opioid receptor (Homo sapiens) (UniProt P35372+P41143)
# Experiment: inverse agonists of MOR-DOR heterodimerization, primary screen, cell-based, luminescence (AID 504357);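 also: 0% = cells with DMSO and 100% = wells without cells with DMSO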
# Conditions: cell-based MOR-DOR heterodimer luminescence, inverse agonism; at 9.3 µM; stronger effect = higher value
row,Compound,inhibition
1,CC1CCCCC1NC(=O)Cn1cnc2c1c(=O)n(C)c(=O)n2C (stereo not drawn),inactive: 1.03%
2,Cc1ccccc1Cn1c(=O)c2c(nc3n2CCN3Cc2ccco2)n(C)c1=O,inactive: 19.8%
3,CCOc1ccccc1OCC(=O)NNC(=O)Cn1cnc2c1c(=O)n(C)c(=O)n2C,inactive: -3.9%
4,O=[N+]([O-])c1cccc2n[nH]nc12,inactive: 15.3%
5,Cn1ncc([N+](=O)[O-])c1C(=O)Nc1nc2ccccc2n1CCN1CCCCC1,inactive: 10.9%
6,CC(=O)N1C2C3N(C(C)=O)C1C1N(C(C)=O)C(C(N1C(C)=O)N3C(C)=O)N2C(C)=O,inactive: 15.5%
7,CC#CCCC(=O)N1C=Cc2ccccc2C1C#N (stereo not drawn),inactive: 10.9%
8,N#CCCNC(=O)Cn1c(COc2ccc(Cl)cc2)nc2ccccc21,inactive: 3.29%
9,Cn1c(=O)[nH]c(=O)c2c1nc1n2CCN1Cc1ccccc1,inactive: 13.7%
10,COC(=O)c1sccc1NC(=O)Cn1cnc2c1c(=O)n(C)c(=O)n2C,inactive: -8.68%
11,Nc1ccccc1CNc1nc(NCCO)nc2c1ncn2CCN1CCOCC1,inactive: -8.12%
12,Cn1c(=O)c2c(ncn2CC(=O)Nc2ccccc2)n(C)c1=O,inactive: -0.47%
13,NC(=O)CC(NC(=O)c1ccccc1)c1ccc(NC2CCN(Cc3ccccc3)CC2)c([N+](=O)[O-])c1 (stereo not drawn),inactive: 6.77%
14,O=C(Cn1c(NCCO)nc2ccccc21)N1CCN(Cc2ccccc2)CC1,inactive: 6.18%
15,N=c1n(CCN2CCCCC2)c2ccccc2n1CC(O)c1ccco1 (stereo not drawn),inactive: 18.1%
16,Cn1c(=O)c2c(ncn2CC(=O)N2CCN(c3ccccc3F)CC2)n(C)c1=O,inactive: 14.6%
17,CSc1nc(N)nc2c1ncn2CC(=O)NCCCc1ccccc1,inactive: 10.4%
18,CCOC(=O)CSc1nc2ccccc2n1CC(=O)N1CCN(c2ccccc2)CC1,inactive: 16.5%
19,c1ccc(CN2CCC3(CC2)Nc2ccccc2CO3)cc1,inactive: -8.59%
20,Cc1cc(NC(=O)CSc2nc3ccccc3n2CC(=O)N2CC(C)CC(C)C2)no1 (stereo not drawn),inactive: 3.04%
21,Cn1c(=O)c2c(nc(Cl)n2CC(=O)NC2(C#N)CCCCC2)n(C)c1=O,inactive: 8.99%
22,N#CCC(=O)N/N=C\c1cc(Br)ccc1OC/C=C/c1ccccc1,inactive: 0.98%

row,Compound,inhibition
1,Cc1ccc(SCc2nc3ccccc3n2CC(=O)Nc2ccccc2)cc1,inactive: -4.99%
2,Cc1ccc2c(c1)C1CN(C)CCC1N2S(=O)(=O)c1ccc(Oc2ccc([N+](=O)[O-])cc2)cc1 (stereo not drawn),inactive: -11.5%
3,COc1cc(NC(=O)Cn2cnc3c(SC)nc(N)nc32)cc(OC)c1OC,inactive: -5.58%
4,CCC(=O)Nc1cccc(C(=O)/C=C/c2cccs2)c1,inactive: -12.9%
5,CC(=O)N1CCc2cc(S(=O)(=O)NC(CC(C)C)C(=O)N3CCn4c3nc3ccccc34)ccc21 (stereo not drawn),inactive: -1.01%
6,COc1ccc(C2=NCC(CBr)S2)cc1 (stereo not drawn),inactive: 3.17%
7,CCN(CC)CCn1c(=N)n(CCO)c2ccccc21,inactive: 10.7%
8,Cn1c(=O)c2c(ncn2CC(=O)N/N=C/c2ccco2)n(C)c1=O,inactive: 7.62%
9,Cn1c(=O)c2c(nc(Sc3nc4ccccc4n3CC(=O)N3CCCCC3)n2C)n(C)c1=O,inactive: -0.85%
10,O=C(NC1CCCCC1)N1CCC(n2c(=O)[nH]c3ccccc32)CC1,inactive: -16%
11,C[C@H](O)[C@@H]1C(=O)N2CCc3ccc(-c4ccccc4)cc3[C@@H]2C[C@@H]1N(C)C(=O)Nc1cc(Cl)cc(Cl)c1,inactive: -5.64%
12,CCC(C)[C@H](NC(=O)N1CCn2c1nc1ccccc12)C(=O)NCCc1ccccc1 (stereo partly drawn),inactive: -4.75%
13,Cc1nc2ccccc2n1CC(=O)NC1CCCCCC1,inactive: 6.32%
14,O=C(Cn1cnc2c(OCc3ccccc3)ncnc21)NCCCn1ccnc1,inactive: 20.4%
15,CCSc1nc2ccccc2n1CC(=O)N1CCCCC1,inactive: 15.1%
16,CNC(=O)Cc1nc2ccccc2n1CC(=O)Nc1cc(C)cc(C)c1,inactive: 6.17%
17,N=c1n(CCN2CCOCC2)c2ccccc2n1CC(=O)c1cccc([N+](=O)[O-])c1,inactive: -2.89%
18,CC1CCN(C(=O)Oc2c(Cl)cc(Cl)c3cccnc23)CC1,inactive: -25.8%
19,O=C1CC(C(=O)Nc2cccc(F)c2)n2c(nc3ccccc32)N1 (stereo not drawn),inactive: -1.39%
20,CN(C)C(=O)OCCc1n(C)cc[n+]1C,inactive: 6.94%
21,O=C(Cn1cnc2c(OCc3ccccc3)ncnc21)NCCCN1CCCC1=O,inactive: 13.9%
22,CCc1nc2ccccc2n1CC(=O)N(C(C)CC)C1CCS(=O)(=O)C1 (stereo not drawn),inactive: 9.69%

row,Compound,inhibition
1,CN1CCC(N(C)c2ncnc3ccc(Br)cc23)CC1,inactive: 13.9%
2,Cn1c(=O)c2c(ncn2CC(=O)N2CCN(c3ccc([N+](=O)[O-])cc3)CC2)n(C)c1=O,inactive: 10.6%
3,CCN(CC)CCn1c(NCc2cccc(OC)c2OC)nc2ccccc21,inactive: 18.3%
4,NNC(=O)Cn1c(SCc2ccccc2)nc2ccccc21,inactive: -15%
5,CC(C)=N/N=C(\N)N[N+](=O)[O-],inactive: 8.03%
6,COC(=O)[C@H](Cc1ccc(O)cc1)NC(=O)Cn1cnc2c(NCc3ccccc3)ncnc21,inactive: 16.5%
7,Cn1c(=O)n(CC(=O)N2CCN(c3nnc(-c4ccccc4)c4ccccc34)CC2)c2ccccc21,inactive: 14.4%
8,CCOC(=O)c1c(NC(=O)Cn2c(C)nc3ccccc32)sc2c1CCC2,inactive: 5.12%
9,COc1ccc(/C([O-])=C(/C(=S)Nc2ccc(C)c(C)c2)n2c[n+](C)c3ccccc32)cc1OC,inactive: 25.2%
10,CCN(/C(=N/P(=O)(N1CCOCC1)N1CCOCC1)N1CCOCC1)c1ccc(OC)cc1,inactive: 14.3%
11,O=C(Nc1ccc2c(c1)nc1n2CCN(Cc2ccccc2)C1)NC1CCCCC1,inactive: 12.8%
12,CC(C)C[C@H](NC(=O)N1CCn2c1nc1ccccc12)C(=O)NC1CCCCC1,inactive: 2.51%
13,C[N+]1=C2C=CC=CC=C2SC12C([N+](=O)[O-])=CC([N+](=O)[O-])=C[C-]2[N+](=O)[O-] (stereo not drawn),inactive: 2.37%
14,COc1ccc(-c2ccc3c(c2)[C@@H]2C[C@H](N(C)C(=O)Nc4ccccc4)[C@H]([C@H](C)O)C(=O)N2CC3)cc1,inactive: 10.8%
15,Cc1nc2ccccc2n1CC(=O)NC(C)C1CC2CCC1C2 (stereo not drawn),inactive: -6.15%
16,CCc1ccc(C(C)NC(=O)Cn2cnc3c(=O)n(C)c(=O)n(C)c32)cc1 (stereo not drawn),inactive: 14.8%
17,Cc1ccc(-c2nnc(N3CCN(C(=O)Cn4c(=O)n(C)c5ccccc54)CC3)c3ccccc23)cc1,inactive: 1.62%
18,COc1ccc2nc(NC(=O)Cn3cnc4c(=O)n(C)c(=O)n(C)c43)sc2c1,inactive: -0.87%
19,CCC(=O)Nc1ccc(NC(=S)NC(=O)/C=C/c2ccccc2)cc1,inactive: 10.3%
20,FC(F)(F)c1ccc2c(c1)nnn2C1CCN(Cc2nnnn2Cc2ccccc2)CC1,inactive: -13.1%
21,CCC(CC)NC(=O)Cn1c(C(C)NC(C)=O)nc2ccccc21 (stereo not drawn),inactive: -1.95%
22,c1ccc(CCn2nnnc2CN2CCC(n3nnc4ccccc43)CC2)cc1,inactive: 7.49%

row,Compound,inhibition
1,C[C@H](NC(=O)N1CCn2c1nc1ccccc12)C(=O)NC1CCCCC1,inactive: 8.62%
2,COCC(=O)N(C)[C@H]1C[C@H]2c3cc(N4CCN(C)CC4)ccc3CCN2C(=O)[C@H]1[C@H](C)O,inactive: 4.02%
3,Nc1ccc([As](=O)(O)c2ccc(N)cc2)cc1,inactive: 4.11%
4,CCSc1nnc(NC(=O)Cn2cnc3c2c(=O)n(C)c(=O)n3C)s1,inactive: 14.2%
5,COc1ccc(CNc2nc3ccccc3n2CCN2CCCCC2)c(OC)c1,inactive: 13%
6,c1ccc(CN2CCC3(CC2)Nc2ccccc2S3)cc1,inactive: -21.6%
7,COc1ccccc1CNc1nc2ccccc2n1CCN1CCCCC1,inactive: -2.51%
8,COc1ccc(N2CCn3c2nc2c3c(=O)n(CCCc3ccccc3)c(=O)n2C)c(OC)c1,inactive: -9.47%
9,Cc1ccc(CNC(=O)CCNC(=O)N2CCn3c2nc2ccccc23)cc1,inactive: 12.4%
10,Cn1c(=O)[nH]c(=O)c2c1nc(CN1CCN(c3ccccc3F)CC1)n2CC(N)=O,inactive: 9.27%
11,Cc1nc2cc(C(F)(F)F)ccc2n1C1CCN(Cc2nnnn2Cc2ccc3c(c2)OCO3)CC1,inactive: 7.42%
12,CC1CN(Cc2nc3c(c(=O)[nH]c(=O)n3C)n2CC(N)=O)CC(C)O1 (stereo not drawn),inactive: 4.65%
13,C=CCc1cccc(CNc2nc3ccccc3n2CCN2CCOCC2)c1O,inactive: 14.1%
14,Cc1cc(C)c(CN2CCN(C(=O)Cn3cnc4c(OCc5ccccc5)ncnc43)CC2)c(C)c1,inactive: -28.8%
15,COc1ccc(Cc2nc3ccccc3n2CC(=O)N/N=C/c2ccccc2)cc1OC,inactive: 1.42%
16,O=C(c1ccco1)N1CCn2c1nc1ccccc12,inactive: 20.9%
17,O=C(Nc1cc([As](=O)(O)O)ccc1O)c1ccccc1,inactive: 7.75%
18,Cn1c(=O)n(CC(=O)Nc2ccccc2)c2ccccc21,inactive: 8.55%
19,Cc1ccc2c(c1)[C@@H]1CN(C)CC[C@@H]1N2S(=O)(=O)c1ccc(F)cc1,inactive: 4.88%
20,Cn1c(=O)[nH]c(=O)c2c1nc(SCc1ccccc1Cl)n2CC(N)=O,inactive: 15.4%
21,COc1ccc(CNC(=O)Cn2cnc3c(=O)n(C)c(=O)n(C)c32)cc1,inactive: 8.32%
22,COc1ccccc1NS(=O)(=O)c1cc(NC(=O)Cn2cnc3c2c(=O)n(C)c(=O)n3C)ccc1C,inactive: -3.46%
